Experimental data from EP0476120B1, “PROCESS FOR PREPARING EQUIMOLAR SALTS OF ASPARTIC ACID AND MAGNESIUM, MAGNESIUM ASPARTATE SALT OBTAINED BY SAID PROCESS AND ITS APPLICATIONS” (LA[…] SPINDLER, priority 1990, dated 1991).
Read-outs that look alike come from different tables or passages of the source.

Legend:
[1] = in 100 ml water at 20 °C
[2] = system: souris

With α-β-aspartate de magnésium the “solubles dans 100 ml d'eau” value [1] was 20 g, the pH (in solution) was 9,8 and the stabilité en solution (in solution, room temperature) was “stable”. The hygroscopicité (solid product) was “hygroscopique”, the “DL 50” value ([2]; intragastric, female mouse) was ~6,6 g.kg⁻¹ and the “DL 50” value ([2]; intragastric, male mouse) was ~7,1 g.kg⁻¹. The “DL 50” value ([2]; intravenous, female mouse) was ~230,5 mg.kg⁻¹ and the “DL 50” value ([2]; intravenous, male mouse) was ~238,4 mg.kg⁻¹.
